Measurements taken from publication PMC7611940, “A Conformation Selective Mode of Inhibiting SRC Improves Drug Efficacy and Tolerability” (Cancer Research, 2021).

How the values were obtained:
Assay in all cases: biochemical
Conditions in all cases: read-out: % remaining activity
DYRK4 = DYRK4 (Homo sapiens, UniProt Q9NR20)
MAP4K3 = MAP4K3 (Homo sapiens, UniProt Q8IVH8)
PKN3 = PKN3 (Homo sapiens, UniProt Q6P5Z2)
PBK = PBK (Homo sapiens, UniProt Q96KB5)
Kit = Kit (Homo sapiens, UniProt P10721)
CDK9/cyclin T1 = CDK9/cyclin T1 (Homo sapiens, UniProt P50750)
FYN = FYN (Homo sapiens, UniProt P06241)
TXK = TXK (Homo sapiens, UniProt P42681)
ERK7 = target: T1, ERK7 (Homo sapiens, UniProt Q8TD08)
T1 construct: gene MAPK15

RAF1 = RAF1 (Homo sapiens, UniProt P04049)
VRK1 = VRK1 (Homo sapiens, UniProt Q99986)
PKCb2 = target: T2, PKCb2 (Homo sapiens, UniProt P05771)
T2 construct: gene PRKCB

STK32C = STK32C (Homo sapiens, UniProt Q86UX6)
GRK1 = GRK1 (Homo sapiens, UniProt Q15835)
HER2/ERBB2 = HER2/ERBB2 (Homo sapiens, UniProt P04626)
STK38L = STK38L (Homo sapiens, UniProt Q9Y2H1)
NEK6 = NEK6 (Homo sapiens, UniProt Q9HC98)
FGFR3 = FGFR3 (Homo sapiens, UniProt P22607)
MYLK3 = MYLK3 (Homo sapiens, UniProt Q32MK0)
CK1a1 = target: T3, CK1a1 (Homo sapiens, UniProt P48729)
T3 construct: gene CSNK1A1

RON = target: T4, RON (Homo sapiens, UniProt Q04912)
T4 construct: gene MST1R

MAP4K2 = MAP4K2 (Homo sapiens, UniProt Q12851)
SGK1 = SGK1 (Homo sapiens, UniProt O00141)
SIK2 = SIK2 (Homo sapiens, UniProt Q9H0K1)
EPHA1 = EPHA1 (Homo sapiens, UniProt P21709)
PKA = target: T5, PKA (Homo sapiens, UniProt P17612)
T5 construct: gene PRKACA

TAOK1 = TAOK1 (Homo sapiens, UniProt Q7L7X3)
CAMK1a = target: T6, CAMK1a (Homo sapiens, UniProt Q14012)
T6 construct: gene CAMK1

CAMK2d = CAMK2d (Homo sapiens, UniProt Q13557)
RPS6KB2 = RPS6KB2 (Homo sapiens, UniProt Q9UBS0)
PLK4 = PLK4 (Homo sapiens, UniProt O00444)
HIPK4 = HIPK4 (Homo sapiens, UniProt Q8NE63)
CAMK1b = target: T7, CAMK1b (Homo sapiens, UniProt Q6P2M8)
T7 construct: gene PNCK

NEK11 = NEK11 (Homo sapiens, UniProt Q8NG66)
MEKK3 = target: T8, MEKK3 (Homo sapiens, UniProt Q99759)
T8 construct: gene MAP3K3

JAK2 = JAK2 (Homo sapiens, UniProt O60674)

`COc1cc(-c2nn(CCN3CCC(N(C)C)CC3)c3ncnc(N)c23)ccc1NC(=O)OC(C)(C)C` [eCF506] gave a remaining activity at 1 µM (DYRK4) of 101%, a remaining activity at 1 µM (MAP4K3) of 87% and a remaining activity at 1 µM (PKN3) of 98.5%. It also gave a remaining activity at 1 µM (PBK) of 104%, a remaining activity at 1 µM (Kit) of 75.1% and a remaining activity at 1 µM (CDK9/cyclin T1) of 109%. It also gave a remaining activity at 1 µM (FYN) of 2.3%, a remaining activity at 1 µM (TXK) of 9.1% and a remaining activity at 1 µM (ERK7) of 89.4%. The remaining activity at 1 µM (RAF1) was 19.6%, the remaining activity at 1 µM (VRK1) was 104% and the remaining activity at 1 µM (PKCb2) was 89.1%. The remaining activity at 1 µM (STK32C) was 116%, the remaining activity at 1 µM (GRK1) was 104% and the remaining activity at 1 µM (HER2/ERBB2) was 126%. For the same compound, the remaining activity at 1 µM (STK38L) was 100%, the remaining activity at 1 µM (NEK6) was 99.7% and the remaining activity at 1 µM (FGFR3) was 84.7%. It also gave a remaining activity at 1 µM (MYLK3) of 101%, a remaining activity at 1 µM (CK1a1) of 111% and a remaining activity at 1 µM (RON) of 90.9%. The remaining activity at 1 µM (MAP4K2) was 90.6%, the remaining activity at 1 µM (SGK1) was 98.9% and the remaining activity at 1 µM (SIK2) was 93.6%. It also gave a remaining activity at 1 µM (EPHA1) of 86.7%, a remaining activity at 1 µM (PKA) of 105% and a remaining activity at 1 µM (TAOK1) of 95%. It also gave a remaining activity at 1 µM (CAMK1a) of 97.4%, a remaining activity at 1 µM (CAMK2d) of 102% and a remaining activity at 1 µM (RPS6KB2) of 108%. It also gave a remaining activity at 1 µM (PLK4) of 117%, a remaining activity at 1 µM (HIPK4) of 105% and a remaining activity at 1 µM (CAMK1b) of 90.7%. It also gave a remaining activity at 1 µM (NEK11) of 75.3%, a remaining activity at 1 µM (MEKK3) of 80.2% and a remaining activity at 1 µM (JAK2) of 97.5%.
